Legend:
Rattus norvegicus [1] = species on record: Rattus norvegicus; experiment: DrugMatrix - Regimen: Daily Repeat; format: toxicity, organism-based, Sprague-Dawley; design: regimen Daily Repeat, gender Male, age 6-8 weeks; settings: in vivo
Rattus norvegicus [2] = species on record: Rattus norvegicus; format: toxicity, organism-based, Sprague-Dawley; settings: in vivo; for ALBUMIN: po, tissue Plasma, route oral GAVAGE
[3] = po, 0 mg/kg, 72 h, tissue Plasma, route oral GAVAGE, dose level Control, time 3 day, vehicle .5 % CMC
[4] = po, 0 mg/kg, 120 h, tissue Plasma, route oral GAVAGE, dose level Control, time 5 day, vehicle .5 % CMC
[5] = po, 20 mg/kg, 72 h, tissue Plasma, route oral GAVAGE, dose level Low, time 3 day, vehicle .5 % CMC
[6] = po, 20 mg/kg, 120 h, tissue Plasma, route oral GAVAGE, dose level Low, time 5 day, vehicle .5 % CMC
[7] = po, 0 mg/kg, 72 h, tissue Plasma, route oral GAVAGE, dose level Control, time 3 day, […]
[8] = po, 0 mg/kg, 120 h, tissue Plasma, route oral GAVAGE, dose level Control, time 5 day, […]
[9] = ip, 0 mg/kg, […], tissue Plasma, route intraperitoneal, dose level Control, time 28 day, vehicle 100 % SALINE
[10] = ip, 2 mg/kg, […], tissue Plasma, route intraperitoneal, dose level High, time 28 day, vehicle 100 % SALINE

CC(C(=O)O)c1ccc2oc(-c3ccc(Cl)cc3)nc2c1 (stereo unspecified) [BENOXAPROFEN]
ALBUMIN (Rattus norvegicus [1]; [3]): 3.63 G/DL | ALBUMIN (Rattus norvegicus [1]; [4]): 3.73 G/DL | ALBUMIN (Rattus norvegicus [1]; [5]): 3.63 G/DL | ALANINE AMINOTRANSFERASE (Rattus norvegicus [1]; [6]): 36.33 u/L | ALBUMIN (Rattus norvegicus [1]; [6]): 3.93 G/DL | ALBUMIN (Rattus norvegicus [1]; po, 89 mg/kg, 72 h, tissue Plasma, route oral GAVAGE, dose level High, time 3 day, vehicle .5 % CMC): 3.13 G/DL | ALBUMIN (Rattus norvegicus [1]; po, 89 mg/kg, 120 h, tissue Plasma, route oral GAVAGE, dose level High, time 5 day, vehicle .5 % CMC): 2.9 G/DL

CN(C)CCCN1c2ccccc2CCc2ccc(Cl)cc21 [CLOMIPRAMINE]
GLUCOSE (Rattus norvegicus [1]; po, 70 mg/kg, 72 h, tissue Plasma, route oral GAVAGE, dose level Low, time 3 day, vehicle 100 % WATER): 168.67 mg/dL

CN1CCN(C2=Nc3cc(Cl)ccc3Nc3ccccc32)CC1 [CLOZAPINE]
ALBUMIN (Rattus norvegicus [1]; [3]): 4.07 G/DL | ALBUMIN (Rattus norvegicus [1]; [4]): 3.75 G/DL | ALBUMIN (Rattus norvegicus [1]; [5]): 3.57 G/DL | ALBUMIN (Rattus norvegicus [1]; [6]): 3.6 G/DL | ALBUMIN (Rattus norvegicus [1]; po, 95 mg/kg, 72 h, tissue Plasma, route oral GAVAGE, dose level High, time 3 day, vehicle .5 % CMC): 3.8 G/DL | ALBUMIN (Rattus norvegicus [1]; po, 95 mg/kg, 120 h, tissue Plasma, route oral GAVAGE, dose level High, time 5 day, vehicle .5 % CMC): 3.97 G/DL

CN(C)CCOC(c1ccccc1)c1ccccc1.Cn1c(=O)c2[nH]c(Cl)nc2n(C)c1=O [DIMENHYDRINATE]
ABSOLUTE LYMPHOCYTE (Rattus norvegicus [1]; po, 0 mg/kg, 72 h, tissue Blood, route oral GAVAGE, dose level Control, time 3 day, vehicle .5 % CMC): 13494.17 CELLS/uL | ABSOLUTE LYMPHOCYTE (Rattus norvegicus [1]; po, 0 mg/kg, 120 h, tissue Blood, route oral GAVAGE, dose level Control, time 5 day, vehicle .5 % CMC): 14614 CELLS/uL | ABSOLUTE LYMPHOCYTE (Rattus norvegicus [1]; po, […], 72 h, tissue Blood, route oral GAVAGE, dose 6.5 mg/Kg, dose level Low, time 3 day, vehicle .5 % CMC): 12501 CELLS/uL | ABSOLUTE LYMPHOCYTE (Rattus norvegicus [1]; po, […], 120 h, tissue Blood, route oral GAVAGE, dose 6.5 mg/Kg, dose level Low, time 5 day, vehicle .5 % CMC): 17652.33 CELLS/uL

CNC[C@H](O)c1ccc(O)c(O)c1 [EPINEPHRINE]
MONOCYTE (Rattus norvegicus [2]; sc, 0 mg/kg, 24 h, tissue Blood, route mini-PUMP - SUBCUTANEOUS, dose level Control, time 1 day, vehicle 100 % SALINE): 1.83% | GLUCOSE (Rattus norvegicus [1]; iv, 0.004 mg/kg, 72 h, tissue Plasma, dose level Low, time 3 day, vehicle 100 % SALINE): 162 mg/dL | GLUCOSE (Rattus norvegicus [1]; iv, 0.0375 mg/kg, 120 h, tissue Plasma, dose level M1, time 5 day, vehicle 100 % SALINE): 179 mg/dL | MONOCYTE (Rattus norvegicus [1]; sc, 0 mg/kg, 120 h, tissue Blood, route mini-PUMP - SUBCUTANEOUS, dose level Control, time 5 day, vehicle 100 % SALINE): 1.83% | NEUTROPHIL (Rattus norvegicus [1]; sc, 0 mg/kg, […], tissue Blood, route mini-PUMP - SUBCUTANEOUS, dose level Control, time 14 day, vehicle 100 % SALINE): 16.5%

OCCN1CCN(CCCN2c3ccccc3Sc3ccc(C(F)(F)F)cc32)CC1 [FLUPHENAZINE]
ALBUMIN (Rattus norvegicus [1]; [7]): 4.15 G/DL | ALBUMIN (Rattus norvegicus [1]; [8]): 4.15 G/DL | ALBUMIN (Rattus norvegicus [1]; po, 22 mg/kg, 72 h, tissue Plasma, route oral GAVAGE, dose level High, time 3 day, […]): 4.37 G/DL | ALBUMIN (Rattus norvegicus [1]; po, 22 mg/kg, 120 h, tissue Plasma, route oral GAVAGE, dose level High, time 5 day, […]): 4.23 G/DL | ALBUMIN (Rattus norvegicus [1]; po, […], 72 h, tissue Plasma, route oral GAVAGE, dose 2.5 mg/Kg, dose level Low, time 3 day): 3.9 G/DL | ALBUMIN (Rattus norvegicus [1]; po, […], 120 h, tissue Plasma, route oral GAVAGE, dose 2.5 mg/Kg, dose level Low, time 5 day): 4.27 G/DL

Cc1ccc(C)c(OCCCC(C)(C)C(=O)O)c1 [GEMFIBROZIL]
ALBUMIN (Rattus norvegicus [2]; 0 mg/kg, 6 h, vehicle control, dose level Control, time 0.25 day): 4.67 G/DL | ALBUMIN (Rattus norvegicus [2]; 0 mg/kg, 24 h, dose level Control, time 1 day): 4.33 G/DL | ALBUMIN (Rattus norvegicus [2]; 100 mg/kg, 6 h, dose level Low, time 0.25 day): 4.32 G/DL | ALBUMIN (Rattus norvegicus [2]; 100 mg/kg, 24 h, dose level Low, time 1 day): 4.52 G/DL | ALBUMIN (Rattus norvegicus [2]; 700 mg/kg, 6 h, dose level High, time 0.25 day): 4.52 G/DL | ALBUMIN (Rattus norvegicus [2]; 700 mg/kg, 24 h, dose level High, time 1 day): 4.63 G/DL | ALBUMIN (Rattus norvegicus [1]; [7]): 4.12 G/DL | ALBUMIN (Rattus norvegicus [1]; po, 0 mg/kg, […], tissue Plasma, route oral GAVAGE, dose level Control, time 7 day): 4.3 G/DL | ALBUMIN (Rattus norvegicus [1]; po, 100 mg/kg, 72 h, tissue Plasma, route oral GAVAGE, dose level Low, time 3 day, […]): 4.37 G/DL | ALBUMIN (Rattus norvegicus [1]; po, 100 mg/kg, […], tissue Plasma, route oral GAVAGE, dose level Low, time 7 day): 4.63 G/DL | ALBUMIN (Rattus norvegicus [1]; po, 700 mg/kg, 72 h, tissue Plasma, route oral GAVAGE, dose level High, time 3 day, […]): 4.38 G/DL | ALBUMIN (Rattus norvegicus [1]; po, 700 mg/kg, […], tissue Plasma, route oral GAVAGE, dose level High, time 7 day): 4.77 G/DL

O=C(CCCN1CCC(O)(c2ccc(Cl)cc2)CC1)c1ccc(F)cc1 [HALOPERIDOL]
ERYTHROCYTE COUNT (Rattus norvegicus [1]; po, 1 mg/kg, 72 h, tissue Blood, route oral GAVAGE, dose level Low, time 3 day, […]): 5.37 x10E6/uL

CC(C)Cn1cnc2c(N)nc3ccccc3c21 [IMIQUIMOD]
ALBUMIN (Rattus norvegicus [1]; sc, 0 mg/kg, 72 h, tissue Plasma, route subcutaneous, dose level Control, time 3 day, […]): 4.08 G/DL | ALBUMIN (Rattus norvegicus [1]; sc, 0 mg/kg, 120 h, tissue Plasma, route subcutaneous, dose level Control, time 5 day, […]): 4.08 G/DL | ALBUMIN (Rattus norvegicus [1]; sc, 17 mg/kg, 72 h, tissue Plasma, route subcutaneous, dose level Low, time 3 day, […]): 3.57 G/DL | ALBUMIN (Rattus norvegicus [1]; sc, 17 mg/kg, 120 h, tissue Plasma, route subcutaneous, dose level Low, time 5 day, […]): 3.43 G/DL | ALBUMIN (Rattus norvegicus [1]; sc, 800 mg/kg, 72 h, tissue Plasma, route subcutaneous, dose level High, time 3 day, […]): 3.2 G/DL | ALBUMIN (Rattus norvegicus [1]; sc, 800 mg/kg, 120 h, tissue Plasma, route subcutaneous, dose level High, time 5 day, […]): 3.13 G/DL

CCN(CC)CCNC(=O)c1cc(Cl)c(N)cc1OC [METOCLOPRAMIDE]
ALBUMIN (Rattus norvegicus [1]; [3]): 3.57 G/DL | ALBUMIN (Rattus norvegicus [1]; [4]): 3.72 G/DL | ALBUMIN (Rattus norvegicus [1]; po, 30 mg/kg, 72 h, tissue Plasma, route oral GAVAGE, dose level Low, time 3 day, vehicle .5 % CMC): 3.57 G/DL | ALBUMIN (Rattus norvegicus [1]; po, 30 mg/kg, 120 h, tissue Plasma, route oral GAVAGE, dose level Low, time 5 day, vehicle .5 % CMC): 3.67 G/DL

C1CCC(C(CC2CCCCN2)C2CCCCC2)CC1 (stereo unspecified) [PERHEXILINE]
ALBUMIN (Rattus norvegicus [1]; [3]): 3.63 G/DL | ALBUMIN (Rattus norvegicus [1]; [4]): 3.73 G/DL | ALBUMIN (Rattus norvegicus [1]; po, 32 mg/kg, 72 h, tissue Plasma, route oral GAVAGE, dose level Low, time 3 day, vehicle .5 % CMC): 3.47 G/DL | ALBUMIN (Rattus norvegicus [1]; po, 32 mg/kg, 120 h, tissue Plasma, route oral GAVAGE, dose level Low, time 5 day, vehicle .5 % CMC): 3.87 G/DL | ALBUMIN (Rattus norvegicus [1]; po, 320 mg/kg, 72 h, tissue Plasma, route oral GAVAGE, dose level High, time 3 day, vehicle .5 % CMC): 3.6 G/DL | ALBUMIN (Rattus norvegicus [1]; po, 320 mg/kg, 120 h, tissue Plasma, route oral GAVAGE, dose level High, time 5 day, vehicle .5 % CMC): 3.56 G/DL

OCCOCCN1CCN(C2=Nc3ccccc3Sc3ccccc32)CC1 [QUETIAPINE]
ALKALINE PHOSPHATASE (Rattus norvegicus [1]; po, 47 mg/kg, 72 h, tissue Plasma, route oral GAVAGE, dose level Low, time 3 day, vehicle .5 % CMC): 406 u/L | PHOSPHORUS (Rattus norvegicus [1]; po, 500 mg/kg, 72 h, tissue Plasma, route oral GAVAGE, dose level High, time 3 day, vehicle .5 % CMC): 10.2 mg/dL

Cc1nc2n(c(=O)c1CCN1CCC(c3noc4cc(F)ccc34)CC1)CCCC2 [RISPERIDONE]
MONOCYTE (Rattus norvegicus [1]; po, 22 mg/kg, 72 h, tissue Blood, route oral GAVAGE, dose level High, time 3 day, vehicle .5 % CMC): 2.33%

CC/C(=C(\c1ccccc1)c1ccc(OCCN(C)C)cc1)c1ccccc1 [TAMOXIFEN]
CHLORIDE (Rattus norvegicus [1]; [7]): 101 MEQ/L | PHOSPHORUS (Rattus norvegicus [1]; [8]): 10.1 mg/dL | SODIUM (Rattus norvegicus [1]; [8]): 143.65 MEQ/L

CN[C@H](CC(C)C)C(=O)N[C@H]1C(=O)N[C@@H](CC(N)=O)C(=O)N[C@H]2C(=O)N[C@H]3C(=O)N[C@H](C(=O)N[C@H](C(=O)O)c4cc(O)cc(O)c4-c4cc3ccc4O)[C@H](O)c3ccc(c(Cl)c3)Oc3cc2cc(c3O[C@@H]2O[C@H](CO)[C@@H](O)[C@H](O)[C@H]2O[C@H]2C[C@](C)(N)[C@H](O)[C@H](C)O2)Oc2ccc(cc2Cl)[C@H]1O [VANCOMYCIN]
NEUTROPHIL (Rattus norvegicus [1]; iv, 25 mg/kg, 72 h, tissue Blood, dose level Low, time 3 day, vehicle 100 % SALINE): 9.33% | LIPASE (Rattus norvegicus [1]; iv, 160 mg/kg, 72 h, tissue Plasma, dose level High, time 3 day, vehicle 100 % SALINE): 9.33 u/L | LIPASE (Rattus norvegicus [1]; iv, 160 mg/kg, 120 h, tissue Plasma, dose level High, time 5 day, vehicle 100 % SALINE): 9.33 u/L

CADMIUM DICHLORIDE
CHLORIDE (Rattus norvegicus [1]; [9]): 105.4 MEQ/L | ALBUMIN (Rattus norvegicus [1]; [10]): 3.47 G/DL | PHOSPHORUS (Rattus norvegicus [1]; [10]): 10.17 mg/dL | NEUTROPHIL (Rattus norvegicus [1]; po, […], 72 h, tissue Blood, route oral GAVAGE, dose 6.6 mg/Kg, dose level Low, time 3 day): 9.33%

COBALTOUS CHLORIDE
CHLORIDE (Rattus norvegicus [1]; [9]): 105.4 MEQ/L

LEAD(IV) ACETATE
ALBUMIN (Rattus norvegicus [1]; po, 200 mg/kg, 120 h, tissue Plasma, route oral GAVAGE, dose level Low, time 5 day, vehicle 100 % SALINE): 4.47 G/DL

LIPOPOLYSACCHARIDE E. COLI O55:B5
ALBUMIN (Rattus norvegicus [1]; iv, 0 mg/kg, 120 h, tissue Plasma, dose level Control, time 5 day, vehicle 100 % SALINE): 4.12 G/DL

SODIUM NITROPRUSSIDE
MEAN CORPUSCULAR HEMOGLOBIN CONCENTRATION (Rattus norvegicus [1]; iv, 6 mg/kg, 72 h, tissue Blood, dose level High, time 3 day, vehicle 100 % SALINE): 39.4 G/DL | LIPASE (Rattus norvegicus [1]; iv, […], 72 h, tissue Plasma, dose 0.12 mg/Kg, dose level Low, time 3 day, vehicle 100 % SALINE): 9.33 u/L

Source: ChEMBL document CHEMBL3885881, “DrugMatrix”
